From ChEMBL document CHEMBL1671826, “Effect of Inhibiting Histone Deacetylase with Short-Chain Carboxylic Acids and Their Hydroxamic Acid Analogs on Vertebrate Development and Neuronal Chromatin” (ACS Med Chem Lett, 2011)

The chains behind the UniProt entries cited, without tags or fusion partners. Where a name states a change or a piece, a line headed by the entry shows the natural chain unless it says otherwise.
UniProt O15379: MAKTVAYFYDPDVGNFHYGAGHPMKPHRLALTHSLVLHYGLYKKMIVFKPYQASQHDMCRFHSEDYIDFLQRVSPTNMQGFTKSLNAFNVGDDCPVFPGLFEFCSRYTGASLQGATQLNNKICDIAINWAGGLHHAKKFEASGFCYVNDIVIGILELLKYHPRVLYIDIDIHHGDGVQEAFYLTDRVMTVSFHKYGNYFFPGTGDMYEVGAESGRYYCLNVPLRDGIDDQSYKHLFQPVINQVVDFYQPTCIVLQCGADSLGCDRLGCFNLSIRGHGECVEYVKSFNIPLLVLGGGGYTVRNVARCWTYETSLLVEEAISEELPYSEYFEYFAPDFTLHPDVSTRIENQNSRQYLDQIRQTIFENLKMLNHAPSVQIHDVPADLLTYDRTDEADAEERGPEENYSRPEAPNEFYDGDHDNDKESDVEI

Biological target: Histone deacetylase 3 (Homo sapiens, UniProt O15379)
Experiment: Inhibition of human recombinant HDAC3
Procedure, shortened: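 Recombinant HDAC isoforms incubated with acetyl-lysine tripeptide–AMC substrate (mimics histone H4 K12), or trifluoroacetyl-lysine-AMC for class IIa enzymes, each substrate at its Km; trypsin cleavage of deacetylated product releases fluorescent AMC. IC50 from two experiments in duplicate, mean ± SD.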

For CCCC(CCC)C(=O)O [VALPROIC ACID], the IC50 was 161 µM.
